Test results from US10654868B2, “Dihydropyrazole azepine compound serving as Akt inhibitor” (HARBIN ZHENBAO PHARMACEUTICAL CO., LTD., priority 2016, dated 2020).

Chains of the proteins cited; added tags and fusions are not shown.
UniProt P31749, whole entry: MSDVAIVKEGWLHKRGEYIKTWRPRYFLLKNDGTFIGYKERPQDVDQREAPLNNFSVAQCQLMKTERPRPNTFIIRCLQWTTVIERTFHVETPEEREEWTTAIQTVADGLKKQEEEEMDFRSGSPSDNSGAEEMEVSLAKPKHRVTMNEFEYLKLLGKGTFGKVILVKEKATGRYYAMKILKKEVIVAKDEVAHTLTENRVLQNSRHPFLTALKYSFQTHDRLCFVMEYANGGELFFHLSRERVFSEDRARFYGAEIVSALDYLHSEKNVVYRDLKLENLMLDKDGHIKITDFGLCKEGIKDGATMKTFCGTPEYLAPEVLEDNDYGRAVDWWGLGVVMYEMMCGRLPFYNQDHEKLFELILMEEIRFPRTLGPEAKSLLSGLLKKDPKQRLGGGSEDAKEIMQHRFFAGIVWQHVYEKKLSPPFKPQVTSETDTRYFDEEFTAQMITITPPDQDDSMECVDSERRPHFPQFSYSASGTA
UniProt P31751, whole entry: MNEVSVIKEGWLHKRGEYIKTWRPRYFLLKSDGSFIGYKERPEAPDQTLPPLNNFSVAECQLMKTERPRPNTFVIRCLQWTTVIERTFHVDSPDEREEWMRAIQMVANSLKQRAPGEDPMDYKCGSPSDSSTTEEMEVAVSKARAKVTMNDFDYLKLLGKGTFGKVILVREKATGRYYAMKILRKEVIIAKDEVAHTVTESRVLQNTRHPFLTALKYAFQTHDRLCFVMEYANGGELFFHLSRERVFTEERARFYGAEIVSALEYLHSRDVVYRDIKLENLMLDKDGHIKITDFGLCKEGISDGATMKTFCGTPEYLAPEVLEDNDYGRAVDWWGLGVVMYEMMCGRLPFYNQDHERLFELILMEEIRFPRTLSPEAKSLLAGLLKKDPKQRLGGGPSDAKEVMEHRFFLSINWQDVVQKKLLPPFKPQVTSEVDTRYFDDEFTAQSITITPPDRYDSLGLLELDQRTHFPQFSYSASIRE
UniProt Q9Y243, whole entry: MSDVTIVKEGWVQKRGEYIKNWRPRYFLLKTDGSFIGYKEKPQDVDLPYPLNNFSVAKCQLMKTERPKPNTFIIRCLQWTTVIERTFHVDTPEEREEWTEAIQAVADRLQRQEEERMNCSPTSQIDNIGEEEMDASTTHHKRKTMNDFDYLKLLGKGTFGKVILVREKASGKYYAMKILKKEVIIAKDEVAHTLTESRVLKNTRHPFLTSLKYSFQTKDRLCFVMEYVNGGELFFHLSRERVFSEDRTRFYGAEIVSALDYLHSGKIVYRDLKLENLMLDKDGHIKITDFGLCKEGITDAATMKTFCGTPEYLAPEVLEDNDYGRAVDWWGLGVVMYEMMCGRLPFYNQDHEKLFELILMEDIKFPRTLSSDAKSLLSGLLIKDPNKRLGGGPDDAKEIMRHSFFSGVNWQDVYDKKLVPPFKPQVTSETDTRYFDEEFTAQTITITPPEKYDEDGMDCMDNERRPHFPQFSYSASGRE

Assays:
Akt1 = Akt1 (Homo sapiens, UniProt P31749); assay: Akt1 kinase inhibition, LANCE TR-FRET; conditions: read-out: Akt1 IC50, ATP 36 uM, 90 min at room temperature
Akt2 = Akt2 (Homo sapiens, UniProt P31751); assay: Akt2 kinase inhibition, LANCE TR-FRET; conditions: read-out: Akt2 IC50; Akt2 2 nM, ATP 360 uM, 90 min at room temperature
Akt3 = Akt3 (Homo sapiens, UniProt Q9Y243); assay: Akt3 kinase inhibition, LANCE TR-FRET; conditions: read-out: Akt3 IC50; Akt3 2 nM, ATP 160 uM, 90 min at room temperature
LNCaP cells = assay: LNCaP cell activity, CellTiter-Glo live cell detection; conditions: read-out: LNcap cell IC50; 1000 cells per well, incubated 3 days, starting concentration 10 uM

IC50 (Akt1): 36 nM
IC50 (Akt2): 856 nM
IC50 (Akt3): 627 nM
IC50 (LNCaP cells): 792 nM
SMILES: N#Cc1cnn2c1-c1cc(C(=O)N[C@H](CN)Cc3cc(F)cc(F)c3)sc1OCC2
